{
  "sequences": {"note": "Amino acid sequences for entries named in this document (tags omitted).", "UniProt O00482, whole entry, looked up": "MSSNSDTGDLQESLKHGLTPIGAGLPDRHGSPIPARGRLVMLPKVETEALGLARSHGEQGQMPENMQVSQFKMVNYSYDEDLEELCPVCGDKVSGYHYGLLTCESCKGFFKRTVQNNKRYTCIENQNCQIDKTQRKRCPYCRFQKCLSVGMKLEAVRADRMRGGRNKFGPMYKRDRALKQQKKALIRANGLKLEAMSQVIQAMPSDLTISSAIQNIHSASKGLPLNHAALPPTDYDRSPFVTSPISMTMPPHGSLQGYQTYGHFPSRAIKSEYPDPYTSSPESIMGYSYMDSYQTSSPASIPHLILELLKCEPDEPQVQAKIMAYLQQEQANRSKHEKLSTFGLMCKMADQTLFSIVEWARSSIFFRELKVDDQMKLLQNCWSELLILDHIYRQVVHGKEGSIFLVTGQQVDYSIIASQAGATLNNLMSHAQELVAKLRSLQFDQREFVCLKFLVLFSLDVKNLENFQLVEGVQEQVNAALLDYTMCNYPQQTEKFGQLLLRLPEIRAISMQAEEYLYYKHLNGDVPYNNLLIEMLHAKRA"},
  "source": "PubChem BioAssay AID602396",
  "about": "(The Scripps Research Institute Molecular Screening Center, 2012)",
  "note": "The entries are a selection whose mix differs from that of the whole data set. The source made the active and inactive calls.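 How the source made its calls: active means inhibition above the mean inhibition of all tested compounds plus 3 SD (cut at about 73% in these data); inactive means the rest.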",
  "data": [
    {"molecular_target": "Nuclear receptor subfamily 5 group A member 2 (Homo sapiens) (UniProt O00482)", "experiment": "reduction of NR5A2-driven StAR reporter activity – cell-based, luminescence, HEK293T, StAR-luciferase reporter, primary screen (AID 602396);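 further: 0% = DMSO wells and 100% = reporter-only cells lacking LRH-1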", "conditions": "LRH-1 transfected, 24 h, at 3.6 µM, active compounds read high", "values": [
      {"smiles": "COc1cc(C2NCCC3(OCCO3)C2(C)C)cc(OC)c1OC", "note": "(centres undefined)", "inhibition": "inactive: -0.54%"},
      {"smiles": "CCOP(=O)(Nc1cccc2ccccc12)OCC", "inhibition": "inactive: -0.1%"},
      {"smiles": "Nc1cccc2c([As](=O)(O)O)cccc12", "inhibition": "inactive: -28.2%"},
      {"smiles": "Cc1ccc(NCCc2c([N+](=O)[O-])cc([N+](=O)[O-])cc2[N+](=O)[O-])cc1", "inhibition": "inactive: -1.35%"},
      {"smiles": "CCCOP(=S)(Nc1nc(N)cc(=O)[nH]1)OCCC", "inhibition": "inactive: -8.87%"},
      {"smiles": "O=[As](O)(c1cccc(O)c1)c1cccc(O)c1", "inhibition": "inactive: 3.74%"},
      {"smiles": "Cc1cccc(OCC(=O)OC2CN3CCC2CC3)c1", "note": "(centres undefined)", "inhibition": "inactive: -16.9%"},
      {"smiles": "O=C(OC1CN2CCC1CC2)c1ccc(Cl)cc1", "note": "(centres undefined)", "inhibition": "inactive: -4.15%"},
      {"smiles": "COc1cc(C(=O)NCC2(N3CCOCC3)CCCCC2)cc(Cl)c1OC(C)C", "inhibition": "inactive: 0.23%"},
      {"smiles": "O=[As](O)(O)c1cccnc1", "inhibition": "inactive: 3.77%"},
      {"smiles": "CS(=O)(=O)c1ccc(Cl)c(NC(=O)COC(=O)C(O)(c2ccccc2)c2ccccc2)c1", "inhibition": "inactive: 11.4%"},
      {"smiles": "N#CCCN(C(=O)COC(=O)C(O)(c1ccccc1)c1ccccc1)c1ccc(F)cc1", "inhibition": "inactive: 1.29%"},
      {"smiles": "CCOP1(=S)c2c(C)nn(CCC#N)c2N=C(c2ccc(F)cc2)N1C", "note": "(centres undefined)", "inhibition": "inactive: -23.2%"},
      {"smiles": "CN(C(=O)Cc1ccccc1)[C@@H]1CC[C@]2(CCCO2)C[C@H]1N1CCCC1", "inhibition": "inactive: -11.3%"},
      {"smiles": "CN(C)C(=O)c1cc([N+](=O)[O-])cc2c1-c1c(cc([N+](=O)[O-])cc1[N+](=O)[O-])C2=O", "inhibition": "inactive: 7.77%"},
      {"smiles": "O=[N+]([O-])c1ccc2c(c1)nnn2O", "inhibition": "inactive: 7.95%"},
      {"smiles": "CN(C(=O)Cc1ccc(Cl)c(Cl)c1)[C@H]1CC[C@@]2(CCCO2)C[C@@H]1N1CCCC1", "inhibition": "inactive: -12%"},
      {"smiles": "NC(=O)Nc1ccc([As](=O)(O)O)cc1", "inhibition": "inactive: -25%"},
      {"smiles": "O=C(O)COc1ccc([As](=O)(O)O)cc1[N+](=O)[O-]", "inhibition": "inactive: 13.6%"},
      {"smiles": "Nc1ccccc1[As](=O)(O)c1ccccc1", "inhibition": "inactive: -4.81%"},
      {"smiles": "CCOP1(=S)c2c(C)nn(CCC#N)c2N=C(c2ccccc2F)N1C", "note": "(centres undefined)", "inhibition": "inactive: -1.94%"},
      {"smiles": "O=P(Nc1nccs1)(c1ccccc1)c1nc2ccccc2s1", "note": "(centres undefined)", "inhibition": "inactive: 14.3%"},
      {"smiles": "O=P(Nc1nccs1)(Oc1ccccc1)Oc1ccccc1", "inhibition": "inactive: 8.12%"},
      {"smiles": "CS(=O)(=O)c1cc([N+](=O)[O-])c2no[n+]([O-])c2c1", "inhibition": "inactive: -9.68%"},
      {"smiles": "Nc1cccc([As](=O)(O)c2ccccc2)c1", "inhibition": "inactive: 3.87%"},
      {"smiles": "NS(=O)(=O)c1cccc(NC(=O)COC(=O)C(O)(c2ccccc2)c2ccccc2)c1", "inhibition": "inactive: 14.8%"},
      {"smiles": "O=P1(Nc2ccc(Br)cn2)COc2ccccc2OC1", "inhibition": "inactive: -1.91%"},
      {"smiles": "O=[As](O)(c1cccs1)c1cccs1", "inhibition": "inactive: 16.8%"},
      {"smiles": "Cc1ccc(OCC(=O)OC2CN3CCC2CC3)cc1", "note": "(centres undefined)", "inhibition": "inactive: -8.64%"},
      {"smiles": "Cc1ccc(S(=O)(=O)N(CCCN)CCCc2c(C)nc(N)[nH]c2=O)cc1", "inhibition": "inactive: -38.7%"},
      {"smiles": "O=P1(Nc2ncccn2)COc2ccccc2OC1", "inhibition": "inactive: 3.12%"},
      {"smiles": "CN(C)C1(CNC(=O)c2ccc(S(C)(=O)=O)cc2)CCCCC1", "inhibition": "inactive: 11.2%"},
      {"smiles": "O=C(/C=C/c1ccccc1)OC1CN2CCC1CC2", "note": "(centres undefined)", "inhibition": "inactive: 10.7%"},
      {"smiles": "CCCC1OP(=O)(Nc2ccccc2)OCC1CC", "note": "(centres undefined)", "inhibition": "inactive: 19.8%"},
      {"smiles": "Cc1nn(-c2ccccc2)c2c1P(=O)(N1CCOCC1)N(C)C(c1ccccc1)=N2", "note": "(centres undefined)", "inhibition": "inactive: -13.6%"},
      {"smiles": "Cc1ccc(C(=O)OC2CN3CCC2CC3)cc1", "note": "(centres undefined)", "inhibition": "inactive: -15.6%"},
      {"smiles": "CC1CCC(C(C)C)C(OP(=O)(Nc2ccccn2)c2ccccc2)C1", "note": "(centres undefined)", "inhibition": "inactive: 15.1%"},
      {"smiles": "CN(C(=O)Cc1ccc(Cl)c(Cl)c1)[C@@H]1CCCC[C@H]1N1CCCC1", "inhibition": "inactive: -30.9%"},
      {"smiles": "CC(C)/C=N\\N=C(\\N)N[N+](=O)[O-]", "inhibition": "inactive: -7.09%"},
      {"smiles": "CC1(CBr)Cn2c(nc3ccccc3c2=O)S1", "note": "(centres undefined)", "inhibition": "inactive: -4.91%"},
      {"smiles": "COc1ccccc1CNC(=O)COC(=O)C(O)(c1ccccc1)c1ccccc1", "inhibition": "inactive: -15.6%"},
      {"smiles": "Clc1n[nH]nc1-c1nn[nH][15n]1", "inhibition": "inactive: 11.7%"},
      {"smiles": "O=P1(N(CCCl)CCCl)NCCC(C(F)(F)F)O1", "note": "(centres undefined)", "inhibition": "inactive: 3.84%"},
      {"smiles": "CC(C)(C)C(=O)NC(Sc1ncccn1)C(Cl)(Cl)Cl", "note": "(centres undefined)", "inhibition": "inactive: 15.4%"},
      {"smiles": "CCC1=CC2Cc3nc4ccc(Cl)cc4c(N)c3C(C1)C2", "note": "(centres undefined)", "inhibition": "inactive: 9.48%"},
      {"smiles": "O=P1(Nc2ccccn2)COc2ccccc2OC1", "inhibition": "inactive: 3.64%"},
      {"smiles": "CCOP(=O)(NC(=NC(C)c1ccccc1)NC(C)c1ccccc1)OCC", "note": "(centres undefined)", "inhibition": "inactive: 8.33%"},
      {"smiles": "CN(CCCl)Cc1cc(Cl)c(NC2=NCCN2)c(Cl)c1", "inhibition": "inactive: 7.88%"},
      {"smiles": "CCOP(=O)(Nc1ccc(C)cn1)OCC", "inhibition": "inactive: 2.25%"},
      {"smiles": "CCC(C)N(CC(C)C)C(=S)SC(NC(C)=O)C(Cl)(Cl)Cl", "note": "(centres undefined)", "inhibition": "inactive: -4.87%"},
      {"smiles": "O=C(OC1CN2CCC1CC2)c1cccc([N+](=O)[O-])c1", "note": "(centres undefined)", "inhibition": "inactive: 4.69%"},
      {"smiles": "CSc1ccc(Nc2c([N+](=O)[O-])cc([N+](=O)[O-])cc2[N+](=O)[O-])cc1", "inhibition": "inactive: 28.2%"},
      {"smiles": "CCOC(=O)c1ccc(NC(=O)C(C)(CCl)SC)cc1", "note": "(centres undefined)", "inhibition": "inactive: -41.4%"},
      {"smiles": "O=C(O)C(=O)c1ccc(N(CCCl)CCCl)cc1", "inhibition": "inactive: 7.02%"},
      {"smiles": "O=C(COc1ccccc1)OC1CN2CCC1CC2", "note": "(centres undefined)", "inhibition": "inactive: 5.02%"},
      {"smiles": "O=C(Nc1ccncc1[N+](=O)[O-])c1ccc([N+](=O)[O-])cc1[N+](=O)[O-]", "inhibition": "inactive: 20.6%"},
      {"smiles": "COP1(=S)c2c(C)nn(CCC#N)c2N=C(c2ccc(F)cc2)N1C", "note": "(centres undefined)", "inhibition": "inactive: 17%"},
      {"smiles": "COC(=O)C1(C)COP(=O)(N2CCCC2)OC1", "note": "(centres undefined)", "inhibition": "inactive: 8.75%"},
      {"smiles": "Cc1cc(SC(NC=O)C(Cl)(Cl)Cl)ncn1", "note": "(centres undefined)", "inhibition": "inactive: -12.1%"},
      {"smiles": "O=P(Nc1ccccn1)(c1cccc2ccccc12)c1cccc2ccccc12", "inhibition": "inactive: 12.2%"},
      {"smiles": "O=[N+]([O-])c1ccc(Nc2ccc(Oc3ccc([N+](=O)[O-])cc3[N+](=O)[O-])cc2)c([N+](=O)[O-])c1", "inhibition": "inactive: -13.4%"},
      {"smiles": "CCOC(=O)Nc1cccc([As](=O)(O)O)c1", "inhibition": "inactive: -11.4%"},
      {"smiles": "COP(=O)(OC)N1CC1c1ccccc1", "note": "(centres undefined)", "inhibition": "inactive: 9.75%"},
      {"smiles": "CCCCOc1ccc(C(=O)NCC2(N3CCCCC3)CCCCC2)cc1OC", "inhibition": "inactive: -49.4%"}
    ]}
  ]
}
